Measured values: ChEMBL document CHEMBL6178016, “Design, Synthesis, and Biological Evaluation of New PDE4 Inhibitors for the Treatment of Pressure Ulcers” (J Med Chem, 2025)

Key:
[1] = Selectivity ratio of IC50 for PDE2A (unknown origin) to IC50 for PDE4D (unknown origin)
[2] = Selectivity ratio of IC50 for PDE3A (unknown origin) to IC50 for PDE4D (unknown origin)
[3] = Selectivity ratio of IC50 for PDE6C (unknown origin) to IC50 for PDE4D (unknown origin)
[4] = Selectivity ratio of IC50 for PDE7A (unknown origin) to IC50 for PDE4D (unknown origin)
[5] = Selectivity ratio of IC50 for PDE10A (unknown origin) to IC50 for PDE4D (unknown origin)
[6] = Selectivity ratio of IC50 for PDE11A (unknown origin) to IC50 for PDE4D (unknown origin)
[7] = Selectivity ratio of IC50 for PDE1A (unknown origin) to IC50 for PDE4D (unknown origin)
[8] = Selectivity ratio of IC50 for PDE5A (unknown origin) to IC50 for PDE4D (unknown origin)
[9] = Selectivity ratio of IC50 for PDE8A (unknown origin) to IC50 for PDE4D (unknown origin)
[10] = Selectivity ratio of IC50 for PDE9A (unknown origin) to IC50 for PDE4D (unknown origin)

Q: Which results are given for Cn1c(=O)c2c(ncn2CCC(=O)NNC(=O)c2cc3nccc(-c4ccc(OC(F)F)c(OCC5CC5)c4)n3n2)n(C)c1=O?
A: Ratio IC50 [1]: > 1700; Ratio IC50 [2]: > 1700; Ratio IC50 [3]: > 1700; Ratio IC50 [4]: > 520; Ratio IC50 [5]: > 30; Ratio IC50 [6]: > 1700; Ratio IC50 [7]: > 1700; Ratio IC50 [8]: > 1700; Ratio IC50 [9]: > 50; Ratio IC50 [10]: > 1700
